Test system: mESC-D3
Experiment: Automated mESC-D3 differentiation assay in 96-well round-bottom ultra-low attachment plates (cardiomyocyte contraction, day 10)
Assay type: cell-based, mouse
Conditions: beating cardiomyocytes at day 10, in brackets the two independent runs
Experimental: The mESC-D3 differentiation assay was automated in 96-well round-bottom ultra-low attachment plates (Costar, Cat. No. 7007) on the lab automation platform Fluent (Tecan). The method was set up for testing up to three different compounds in an automated procedure, resulting in maximal 9 plates that were being processed. A 7-point dilution series of test compounds and control solutions were prepared in PBS or DMSO under the laminar flow, transferred to a 96-well 0.5 ml Masterblock plate, and placed on the Fluent worktable. There the compounds were further diluted in growth media in a 96-well 2 ml Masterblock plate using the FCA. Of the compound solution, 10 μl/well were dispensed into a 96-well round well ultra-low attachment plate. In the meantime, a suspension of mESC-D3 (3.75 × 10^4 cells/ ml) was prepared in growth media and was placed in a trough on the worktable. The cell suspension was transferred into the 96-well round-bottom ultra-low attachment plate (40 μl/well) using the FCA. […] After further 3 days of incubation (= day 10 of the assay) cardiomyocyte contraction was determined in each well under the light microscope. Afterward, cells were stained and analyzed using the Opera High Content Screening System (PerkinElmer). […]

Cn1c(=O)c2c(ncn2C)n(C)c1=O [Caffeine, caffeine]
Differentiation assay in round bottom ULA microplate ID50 mESC-D3: > 200 (> 200; > 200) μg/ml
